Only a part is listed here, and it is no random draw. Inconclusive results are not listed. Calls of active or inactive are those of the source. The calls were made as follows, unless noted: active = hit-call score of the fitted dose curve at least 0.9, where 1 is the maximum; inconclusive = response in the unintended direction; inactive = score below 0.9.

We go through 5 compounds from PubChem BioAssay (EPA / NIEHS).

Test [1] in a line: Tanguay_ZF_120hpf_AXIS_legacy: (Legacy) Oregon State University Tanguay Lab 120 Hour Post-fertilization zebrafish Assay for Body Axis Malformation (AID 2283635). A digest of the protocol:
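Chorion is removed with pronase at 4 hpf, then single 6 hpf embryos are dosed (final DMSO 0.64%) and held statically at 28C in sealed, foil-covered plates. At 120 hpf body axis malformation is recorded as present or absent.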

Test [2] can be described thus: Tanguay_ZF_120hpf_SNOU_legacy: (Legacy) Oregon State University Tanguay Lab 120 Hour Post-fertilization zebrafish Assay for Snout Malformation (AID 2283637). A digest of the protocol: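 Binary brightfield scoring of snout malformation at 120 hpf. Dechorionated 5D wild-type embryos, one per well, static exposure from 6 hpf at 28C, sealed and dark; final DMSO 0.64% (vol/vol), DMSO as baseline; 5uM trimethyltin chloride positive control.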

A short description of test [3]: Tanguay_ZF_120hpf_JAW_legacy: (Legacy) Oregon State University Tanguay Lab 120 Hour Post-fertilization zebrafish Assay for Jaw Malformation (AID 2283638). A digest of the protocol: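 Steps: dechorionate 4 hpf embryos (pronase); plate 1/well at 6 hpf; add test chemical, 0.64% DMSO final; seal, cover, hold at 28C statically to 120 hpf; score jaw defect presence/absence microscopically. Dead embryos not scored.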

Test [4] in a line: Tanguay_ZF_120hpf_OTIC_legacy: (Legacy) Oregon State University Tanguay Lab 120 Hour Post-fertilization zebrafish Assay for Otic Vesicle Malformation (AID 2283639). Summed up: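 Wild-type zebrafish larvae, whole-embryo exposure from early stage to 120 hpf at 28C. Binary brightfield scoring of otic vesicle morphology, fitted in the positive direction against the DMSO baseline.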

Test [5] can be described thus: Tanguay_ZF_120hpf_PE_legacy: (Legacy) Oregon State University Tanguay Lab 120 Hour Post-fertilization zebrafish Assay for Pericardial Edema (AID 2283640). Summed up: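 Embryos from wild-type 5D adults were staged, then dosed in 0.64% DMSO. They were kept sealed in the dark at 28C until 120 hpf. Pericardial edema was then recorded as present or absent.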
Test [6] can be described thus: Tanguay_ZF_120hpf_CFIN_legacy: (Legacy) Oregon State University Tanguay Lab 120 Hour Post-fertilization zebrafish Assay for Caudal Fin Malformation (AID 2283649). A digest of the protocol:
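Binary presence or absence of caudal fin malformation at 120 hpf, read by brightfield microscopy, with DMSO as baseline. Larvae came from 5D wild-type embryos exposed statically from 6 hpf at 28C after pronase dechorionation.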

Test [7] in a line: Tanguay_ZF_120hpf_PIG_legacy: (Legacy) Oregon State University Tanguay Lab 120 Hour Post-fertilization zebrafish Assay for Pigmentation Malformation (AID 2283650). Summed up: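 Brightfield scoring of pigmentation malformation at 120 hpf, recorded as binary present/absent per larva. Exposure: dechorionated 5D wild-type embryos, one per well, static from 6 hpf at 28C, final DMSO 0.64% (vol/vol). Dead embryos not scored.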

Test [8] in a line: Tanguay_ZF_120hpf_CIRC_legacy: (Legacy) Oregon State University Tanguay Lab 120 Hour Post-fertilization zebrafish Assay for Circulatory Malformation (AID 2283651). A digest of the protocol: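 Binary circulatory-malformation call at 120 hpf via brightfield imaging, relative to DMSO controls. Embryos (5D strain, chorion removed) received static, light-shielded exposure at 28C.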

Test [9] is described as follows: Tanguay_ZF_120hpf_SWIM_legacy: (Legacy) Oregon State University Tanguay Lab 120 Hour Post-fertilization zebrafish Assay for Swim Bladder Malformation (AID 2283654).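 Also: swim bladder malformation in each larva scored yes or no under brightfield.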 A digest of the protocol: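 Tropical 5D embryos dechorionated at 4 hpf; 1 embryo/well from 6 hpf; static, sealed, dark exposure at 28C until 120 hpf; final DMSO 0.64%; 5uM trimethyltin chloride positive control; swim bladder defect recorded yes/no; dead embryos not scored.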

Test [10] in a line: Tanguay_ZF_120hpf_TRUN_legacy: (Legacy) Oregon State University Tanguay Lab 120 Hour Post-fertilization zebrafish Assay for Truncated Body (AID 2283655). Summed up: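 Truncated body is recorded as a binary endpoint at 120 hpf by brightfield imaging of wild-type 5D larvae. Exposure runs statically from 6 hpf at 28C with 0.64% DMSO; embryos dying earlier are not scored.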
A short description of test [11]: Tanguay_ZF_120hpf_NC_legacy: (Legacy) Oregon State University Tanguay Lab 120 Hour Post-fertilization zebrafish Assay for Notochord and Tail Malformation (AID 2283656). Summed up:
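Binary notochord-distortion calls, made by brightfield inspection, form the read-out; activity is fitted in the positive direction against DMSO. Exposure ran statically from 6 to 120 hpf at 28C with 0.64% DMSO.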

A short description of test [12]: CCTE_Padilla_ZF_144hpf_TERATOSCORE: (Legacy) CCTE's 144 Hour Post-fertilization zebrafish Assay Teratoscore, Padilla Lab (AID 2283679; active = hit-call score of the fitted dose curve at least 0.9, where 1 is the maximum; inactive = score below 0.9;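 also: zebrafish embryos with chorions exposed by immersion from 6-8 hpf to 5 dpf with daily renewal; teratogenicity score from eye scoring of death hatching and malformations at 144 hpf; higher score means more developmental defects relative to DMSO baseline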). Summed up: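 Larvae scored by eye at 144 hpf for death, hatching and malformations after a day in clean Hanks'. Before that, daily-renewed exposure at 80 uM (0.4% DMSO, 26C) from roughly 6-8 hpf through 5 dpf, 4 embryos per chemical.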

Test [13] is described as follows: Tanguay_ZF_120hpf_ActivityScore_legacy: (Legacy) Oregon State University Tanguay Lab 120 Hour Post-fertilization zebrafish Assay Score for Activity (AID 2283742).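 Also: dechorionated Tropical 5D wild-type zebrafish embryos held singly per well.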 A digest of the protocol: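 Dechorionated 5D embryos, one per well, static exposure 6–120 hpf, 28C, sealed and dark; final DMSO 0.64% (vol/vol). Brightfield binary scoring of mortality plus 18 endpoints; gain-of-signal fit versus DMSO baseline.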

The nature of test [14]: ACEA_AR_agonist_AUC_viability: ACEA Biosciences xCELLigence Real-Time Cell Analysis on Androgen Receptor Agonism for Viability (AID 2283775). Summed up: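 Viability endpoint from xCELLigence impedance in 22Rv1 prostate cells at 80 h. Eight-point series, 100 uM maximum final.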
A short description of test [15]: ACEA_AR_antagonist_AUC_viability: ACEA Biosciences xCELLigence Real-Time Cell Analysis on Androgen Receptor Antagonism for Viability (AID 2283776).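 Also: area under impedance growth curve at 80 h after dosing as viability; hits lower the growth signal relative to DMSO meaning cytotoxicity.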 Summed up: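 22Rv1 human prostate cancer cells were seeded on electrode plates, monitored overnight, then exposed to eight 1:4 dilutions from 100 uM final. Impedance-based growth kinetics at 80 h gave an AUC viability endpoint normalized to DMSO.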

Test [16] is described as follows: ACEA_ER_AUC_viability: ACEA Biosciences xCELLigence Real-Time Cell Analysis on Estrogen Receptor Agonism for Viability (AID 2283782).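 Also: hit means loss of impedance signal meaning reduced cell growth or viability.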 A digest of the protocol: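 Read-out: real-time electrical impedance (RT-CES) area under curve, loss of signal taken as reduced viability, normalized to DMSO baseline. T-47D cells, charcoal-stripped serum medium, compounds up to 100 uM final, continuous exposure, 80 h.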

The nature of test [17]: CCTE_Simmons_MITO_basal_resp_rate: CCTE's HepG2 Seahorse XF Respirometric Screening Assay at Basal Respiratory State, Simmons Lab (AID 2284001; active = hit-call score of the fitted dose curve at least 0.9, where 1 is the maximum; inactive = score below 0.9). The conditions noted are these: actives raise or lower the signal. Summed up:
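Basal-phase OCR of HepG2 cells on a Seahorse XF96, analysed by bidirectional fit relative to DMSO vehicle; chemicals at 7 concentrations, 125 nM–100 uM final; three biological replicates; fenpyroximate and 2,4-dinitrophenol positive controls.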

The nature of test [18]: CCTE_Simmons_MITO_max_resp_rate: CCTE's HepG2 Seahorse XF Respirometric Screening Assay at Maximal Respiratory State [uncoupled], Simmons Lab (AID 2284002; active = hit-call score of the fitted dose curve at least 0.9, where 1 is the maximum; inactive = score below 0.9). The conditions noted are these: actives raise or lower the signal. Summed up:
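Read-out is oxygen consumption rate at maximal respiration, taken after FCCP uncoupling of compound-treated HepG2 cells. Seven final concentrations from 125 nM to 100 uM were tested, each in three biological replicates.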

A short description of test [19]: CCTE_Simmons_MITO_inhib_resp_rate: CCTE's HepG2 Seahorse XF Respirometric Screening Assay at Inhibited Respiratory State [full ETC block], Simmons Lab (AID 2284006; active = hit-call score of the fitted dose curve at least 0.9, where 1 is the maximum; inactive = score below 0.9). The conditions noted are these: actives raise or lower the signal. A digest of the protocol:
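Test chemicals at seven final concentrations (125 nM–100 uM) in three biological replicates, with DMSO as vehicle. HepG2 oxygen consumption was then tracked on a Seahorse XF96 for 72 min through FCCP and rotenone/antimycin A phases, with the inhibited-phase rate as the endpoint.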

The nature of test [20]: CCTE_Simmons_MITO_viability: CellTiter-Glo Viability Assessment for CCTE's HepG2 Seahorse XF Respirometric Screening Assay [post-hoc], Simmons Lab (AID 2284007).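 Also: cells exposed to chemical for 90 min before the ATP read; actives lower ATP signal relative to DMSO baseline meaning reduced viability.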 Summed up: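 Post-hoc viability check on the HepG2 respirometry plates: luciferase-based ATP signal measured once, after 90 min compound exposure spanning 125 nM–100 uM final. Activity was referenced to DMSO as baseline.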
(In general: ATP-based viability assays read luminescence as a measure of living cells.)

By AC50 is commonly meant the concentration at which the activity in the assay is half-maximal. Regarding `O=[N+]([O-])c1ccccc1[N+](=O)[O-]`, the call in [1], in test [2], in [3], in [4], in [5] and in test [6] was inactive. Further, the result in [7], in [8], in [9], in [10], in test [11] and in [14] was inactive. Also, the compound was classed as inactive in test [18]. Moreover, the AC50 was active: 7.95 µM in test [12]; active: 30.8 µM in [13]; active: 67.2 µM in test [15]; active: 90.3 µM in test [16]; active: 31.1 µM in test [17]; active: 50 µM in test [19]. In addition, in [20], the AC50 is active: 34.1 µM.

With `ClCCOP(OCCCl)OCCCl`, the compound was called inactive in test [14] and in test [15].

`CCOP(=O)(Cl)Cl`: the AC50 in test [16] was active: 28.6 µM.

On to `ClCCNCCCl`, for which the compound was classed as inactive in test [16].

In the case of `CC(C)OP(OC(C)C)OC(C)C`, the half-maximal activity concentration (AC50) in test [16] is active: 50 µM.
